{"source": "patent US5096884A", "about": "“Glidobactin PF-1 peptide antibiotics” (Bristol-Myers Squibb Company, priority 1990, dated 1992)", "tested_on": "B16 Melanoma (ip)", "settings": "QD1→9, ≥125% significant", "experimental": "In vivo antitumor activity of glidobactin PF-1 was determined in experimental mouse tumor systems. Female CDF1 and male BDF1 mice were intraperitoneally inoculated with 0.4 mL of diluted ascitic fluid containing 10^6 lymphocytic leukemia P388 cells and 0.5 mL of 10% melanotic melanoma B16 brei, respectively. Test compounds were intraperitoneally administered daily for 9 days starting from 1 day after the tumor implantation.", "note": "Read-outs that look alike come from different tables or passages of the source."}
{"smiles": "CO[C@@]12[C@H](COC(N)=O)C3=C(C(=O)C(C)=C(N)C3=O)N1C[C@@H]1N[C@@H]12", "note": "[Mitomycin C]", "values": [{"measurement": "T/C % of MST", "setting": "B16, 0.13 mg/kg/day", "value": 100, "unit": "%"}, {"measurement": "T/C % of MST", "setting": "B16, 0.25 mg/kg/day", "value": 134, "unit": "%"}, {"measurement": "T/C % of MST", "setting": "B16, 0.5 mg/kg/day", "value": 166, "unit": "%"}, {"measurement": "T/C % of MST", "setting": "B16, 1 mg/kg/day", "value": 200, "unit": "%"}]}
